The test has as its target recombinant human GSK3 enzyme (GSK-3β). The format is biochemical. How it is done:
Measurement of the Inhibition of GSK-3β
The enzyme inhibition assays were performed using the luminometric methodology of kinase-Glo®. The recombinant human GSK3 enzyme (catalogue no. 14-306) was acquired from Upstate (Dundee, UK). The prephosphorylated polypeptide was synthesised by American Peptide Inc. (Sunnyvale, Calif.). The luminescent kinase kit (catalogue no. V6711) was obtained from Promega. The ATP and the other reagents were purchased from Sigma-Aldrich (St. Louis, Mo.).
The assays were performed in buffer using 96-well plates. 10µl of the compound to be assayed (dissolved in DMSO at a concentration of 1 mM, and, in turn, dissolved in buffer to the concentration necessary for the experiment) and 10µl (20 ng) of the enzyme are added to each well, followed by 20µl of buffer containing 25µM of the substrate and 1µM of ATP. […] Following a half-hour incubation at 30° C., the enzymatic reaction is stopped with 40µl of the kinase-Glo® reagent. The luminescence is measured after ten minutes, using a POLARstar Optima multimode reader. The activity is proportional to the difference between the total ATP and the ATP consumed. The inhibitory activities were calculated as a function of the maximum activity, measured in the absence of inhibitor.
As for “6-Chloro-N′-dodecanoyl-4-hydroxy-2-oxo-2-hydroquinoline-3-carbohydrazide [Compound 48]”, the concentration for half-maximal inhibition (IC50) (commonly the point on the concentration scale where inhibition reaches its midpoint) worked out at 3.81 ± 0.12 µM. As for “7-Chloro-N′-dodecanoyl-4-hydroxy-2-oxo-2-hydroquinoline-3-carbohydrazide [Compound 15]”, the figure is 3.12 ± 0.03 µM; as for “6-Bromo-N′-dodecanoyl-4-hydroxy-2-oxo-2-hydroquinoline-3-carbohydrazide [Compound 47]”, 3.54 ± 0.18 µM; as for “6-Fluoro-N′-dodecanoyl-4-hydroxy-2-oxo-2-hydroquinoline-3-carbohydrazide [Compound 17]”, 5.81 ± 0.76 µM. As for “N′-Dodecanoyl-4-hydroxy-2-oxo-2-hydroquinoline-3-carbohydrazide [Compound 13]”, the figure is 4.47 ± 0.29 µM.

(Values after US9585879B2, “Heterocyclic GSK-3 allosteric modulators” (Consejo Superior de Investigaciones Cientificas (CSIC), priority 2011, dated 2017).)
